From patent US20060084113A1

Assays:
[1] = target: trypsin (immobilized active trypsin, Pierce; or free trypsin) (UniProt P00760); assay: phage on beads, acid elution, pfu
[2] = target: anhydro-trypsin (agarose-immobilized, Pierce) (UniProt P00760); assay: phage titer after incubation with beads
[3] = target: streptavidin (agarose-immobilized, Sigma) (UniProt P22629); assay: phage titer after incubation with beads
Protein A-agarose beads = Protein A-agarose beads (UniProt P38507); assay: phage titer after protein A-agarose; batch 5
[4] = target: normal rabbit serum / IgG purified from normal rabbit serum; assay: phage titer after normal rabbit IgG; batch 4
[5] = target: normal rabbit serum / IgG purified from normal rabbit serum; assay: phage titer after normal rabbit IgG; batch 5
[6] = target: anhydro-trypsin (agarose-immobilized, Pierce) (UniProt P00760); assay: phage on beads, acid elution, pfu; experiment 1
[7] = target: normal rabbit serum / IgG purified from normal rabbit serum; assay: phage titer after normal rabbit IgG and protein A-agarose; batch 4
[8] = target: normal rabbit serum / IgG purified from normal rabbit serum; assay: phage titer after normal rabbit IgG and protein A-agarose; batch 5
[9] = target: anhydro-trypsin (agarose-immobilized, Pierce) (UniProt P00760); assay: phage on agarose beads, pH 2.2 elution, dot blot
[10] = target: streptavidin (agarose-immobilized, Sigma) (UniProt P22629); assay: phage on agarose beads, pH 2.2 elution, dot blot
[11] = target: human neutrophil elastase (HNE), immobilized on agarose beads (human) (UniProt P08246); assay: phage on beads, acid elution, pfu
[12] = target: anhydro-trypsin (agarose-immobilized, Pierce) (UniProt P00760); assay: phage on beads, elution, pfu
[13] = target: trypsin (immobilized active trypsin, Pierce; or free trypsin) (UniProt P00760); assay: phage on beads, elution, pfu
[14] = target: trypsin (immobilized active trypsin, Pierce; or free trypsin) (UniProt P00760); assay: phage on protease beads, pH 2.2 elution

M13MB48 phage (BPTI:VIII fusion protein display phage) (from UniProt P00974 36-93)
eluted phage, % of input [1]: 0.13 % of input
relative binding (to M13MP18) [1]: 260 fold
% of input pfu left after incubation [2]: 58 % of input
% of input pfu left after incubation [3]: 98 % of input
% of input pfu left, +Protein A (Protein A-agarose beads): 58 % of input
% of input pfu left, +NRS [4]: 125 % of input
% of input pfu left, +NRS [5]: 105 % of input
binding relative to M13MP18 [6]: 56 fold
eluted phage, % of input [6]: 11.2 % of input
% of input pfu left, +NRS +Protein A [7]: 121 % of input
% of input pfu left, +NRS +Protein A [8]: 110 % of input

BPTI-III MK phage (M13 derivative displaying BPTI fused to the gene III protein)
percent of total phage recovered in elution buffer, 2 µl IAT [9]: 5%
percent of total phage recovered in elution buffer, 5 µl IAT [9]: 20%
percent of total phage recovered in elution buffer, 10 µl IAT [9]: 50%
percent of total phage recovered in elution buffer, 5 µl IS [10]: < 1%

M13.3X7 phage (BPTI:VIII fusion with one EGGGS linker) (from UniProt P00974 36-92) (other; other documents disagree on this pair)
eluted phage, % of input [11]: 0.001 % of input
relative binding (to M13MP18) [11]: 3.3 fold

M13.3X7 phage (BPTI:VIII fusion with one EGGGS linker) (from UniProt P00974 36-92)
eluted phage, % of input [12]: 25 % of input
relative binding (to M13MP18) [12]: 250 fold
eluted phage, % of input [13]: 1.4 % of input
relative binding (to M13MP18) [13]: 6000 fold
eluted phage, % of input [1]: 1.15 % of input
relative binding (to M13MP18) [1]: 2300 fold

M13MB48 phage (BPTI:VIII fusion protein display phage) (from UniProt P00974 36-93) (other; other documents disagree on this pair)
eluted phage, % of input [11]: 0.009 % of input
relative binding (to M13MP18) [11]: 30 fold

BPTI(K15L)-III MA phage
percentage of input phage recovered [14]: 0.005%
total pfu in elution fraction [14]: 52000 pfu

M13.3X11 phage (BPTI:VIII fusion with 3 linkers)
eluted phage, % of input [12]: 9.2 % of input
relative binding (to M13MP18) [12]: 92 fold
